# Assay results taken from PubChem BioAssay AID1556 (The Scripps Research Institute Molecular Screening Center, 2009).
# This is a selection; strong and weak results do not stand in their true shares. Some results for these compounds are left out of this collection, so the calls shown say nothing about other tests. Activity calls are given as the source filed them.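 The calls were made as follows: active = inhibition above the mean plus 3 SD of all compounds in the same screening run (cut at about 4.5% in these data); inactive = the rest.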
# Tested on: metallo-beta-lactamase IMP-1 (Pseudomonas aeruginosa)
# Assay: IMP-1 metallo-beta-lactamase inhibitors, primary screen, biochemical, epi-absorbance readout, Pseudomonas aeruginosa enzyme (AID 1556);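 also: 0% = IMP-1 with DMSO and 100% = DMSO wells lacking enzyme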
# Settings: purified IMP-1, nitrocefin hydrolysis, epi-absorbance fluorescence; at 5.6 µM; stronger effect = higher value
# Procedure, shortened: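 System: purified IMP-1; amount: IMP-1 0.2 nM before substrate addition; compound: single dose, 5.6 µM; times: 25 °C, 15 min preincubation, 25 min reaction; signal: Epi-absorbance via hydrolysed-nitrocefin quenching of white-plate fluorescence, 480/530 nm, EDTA stop; benchmarks: DMSO with and without IMP-1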
row,SMILES,inhibition
1,CN(C)c1ccc(C(=O)NCC2(N(C)C)CCCCC2)cc1,inactive: -2.23%
2,CN(C)C1CCCC1OC(=O)C(O)(c1ccccc1)c1ccccc1 (centres undefined),inactive: -5.49%
3,Cc1ccccc1C(=O)NCC1(N2CCCCC2)CCCCC1,inactive: -3.2%
4,COc1ccc(C(=O)NCC2(N(C)C)CCCCC2)cc1,inactive: -0.21%
5,O=C(NCC1(N2CCCCC2)CCCCC1)c1cccc(Br)c1,inactive: -1.96%
6,CCN1CCCC(OC(=O)C2(O)c3ccccc3C=Cc3ccccc32)C1 (centres undefined),inactive: 1.31%
7,Cc1cc(C(=O)NCC2(N3CCCCC3)CCCCC2)ccc1[N+](=O)[O-],inactive: -2.87%
8,O=C(NCC1(N2CCCCC2)CCCCC1)c1cc(F)c(F)cc1Cl,inactive: -1.49%
9,C=CCN1CCN(CCOC(=O)C(O)(c2ccccc2)c2ccccc2)CC1,inactive: -1.84%
10,CN1[C@@H]2CC[C@H]1CC(OC(=O)C(O)(c1ccccc1)c1ccccc1)C2 (some centres undefined),inactive: -3.05%
11,O=C(NCC1(N2CCCCC2)CCCCC1)c1cc([N+](=O)[O-])ccc1Cl,inactive: -0.81%
12,Cc1ccc(C(=O)NCC2(N3CCCCC3)CCCCC2)cc1,inactive: -0.59%
13,COc1cc(SC)ccc1C(=O)NCC1(N(C)C)CCCCC1,inactive: 0.17%
14,CCN(CC)CC(C)C(C)OC(=O)C(O)(c1ccccc1)c1ccccc1 (centres undefined),inactive: -1.58%
15,CC(C)N1C(=O)CC2(CCN(CCOC(=O)C(O)(c3ccccc3)c3ccccc3)CC2)C1=O,inactive: -0.91%
16,O=C(OC1CN2CCC1CC2)C(CO)(c1ccccc1)c1ccccc1 (centres undefined),inactive: -2.59%
17,CC(C)Oc1ccc(C(=O)NCC2(N(C)C)CCCCC2)cc1,inactive: -0.33%
18,CN(C)c1cccc(C(=O)NCC2(N(C)C)CCCCC2)c1,inactive: -1.72%
19,COc1ccc(Br)c(C(=O)NCC2(N3CCCCC3)CCCCC2)c1,inactive: 0.37%
20,COc1cc(C(=O)NCC2(N(C)C)CCCCC2)c([N+](=O)[O-])cc1OC,inactive: 0.92%
21,CN(C)C1(CNC(=O)c2ccc(Br)cc2)CCCCC1,inactive: -2.99%
22,O=C(NCC1(N2CCCCC2)CCCCC1)c1cccc(Cl)c1,inactive: -1.29%
23,COc1ccc(Cl)cc1C(=O)NCC1(N(C)C)CCCCC1,inactive: -1.2%
24,COc1cccc(C(=O)NCC2(N3CCCCC3)CCCCC2)c1,inactive: -2.42%
